Curated experimental data: water solubility values

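These are experimental values that the OPERA curators gathered from public databases to train and test their QSAR models. One number stands for a compound and property, with no spread given. How each value was measured is not recorded, so precision varies. A value may pool stereoisomers or salt forms, and the file does not say which form was measured. Some upstream entries may be estimates or bounds without being marked so.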

Solubility in water is on a log10 molar scale (set defined at 25 °C). Cells with "–" have no entry in this list.

structure (SMILES),name,water solubility (log10 mol/L)
Nc1ccc(Cl)cc1C(=O)c1ccccc1,2-Amino-5-chlorobenzophenone,-4.888
CCCCc1c(C)nc(NCC)nc1O,Ethirimol,-2.997
FC(F)Br,Bromodifluoromethane,0.582
C[N+]1(C)CCCCC1.[Cl-],Mepiquat chloride,0.524
CNCC(C)c1ccccc1 (centres undefined),–,-1.09
C[C@H]1CC(=O)C=C2CC[C@H]3[C@@H]4CC[C@H](O)[C@@]4(C)CC[C@@H]3[C@]21C,17beta-Hydroxy-1alpha-methylandrost-4-ene-3-one,-3.526
C#C[C@@]1(O)CC[C@@H]2[C@H]3CC=C4C=C(OCC)CC[C@H]4[C@@H]3CC[C@]21C,–,-7.044
COS(=O)(=O)OC,Dimethyl sulfate,-0.662
CC1=CC(=O)N2CC(=O)N(C)c3ccc(Cl)cc3C2(c2ccccc2)O1 (centres undefined),Ketazolam,-3.643
Clc1nc(Cl)nc(Cl)n1,"2,4,6-Trichloro-s-triazine",-2.737
Nc1nc(N)c2[nH]c(N)nc2n1,"2,6,8-Triaminopurine",-1.5
CCS(=O)(=O)C(C)(C)S(=O)(=O)CC,Sulfonmethane,-1.219
C=CCC1(CCCC)C(=O)NC(=O)NC1=O,5-Allyl-5-butylbarbituric acid,-2.171
C[C@]12CC[C@H]3[C@@H](C4CC4[C@]4(O)C[C@@H](O)CC[C@]34C)[C@@H]1[C@@H]1C[C@@H]1C2=O (stereo not given in full),–,-3.346
O=C(NC(=O)c1c(F)cccc1F)Nc1cc(Cl)c(OC(F)(F)C(F)F)c(Cl)c1,Hexaflumuron,-7.231
Nc1nnn[nH]1,Tetrazol-5-ylamine,-0.836
Nc1nc(N)c2nc(N)c(N)nc2n1,"2,4,6,7-Pteridinetetramine",-3.398
Clc1cc2oc3c(Cl)c(Cl)c(Cl)c(Cl)c3c2cc1Cl,"1,2,3,4,7,8-Hexachlorodibenzofuran",-10.66
N#C/C=C/c1ccccc1,(2E)-3-Phenylprop-2-enenitrile,-2.083
O=C(O)c1c(Cl)ccc2cc(Cl)cnc12,–,-6.57
Sc1ccccc1Cl,o-Chlorothiophenol,-2.021
C[C@]12C=CC(=O)C=C1CC[C@@H]1[C@@H]2CC[C@]2(C)OC(=O)CC[C@@H]12,Testolactone,-4.078
FC(F)(F)OC(F)(Cl)C(F)(F)Cl (centres undefined),"1,2-Dichloro-1,1,2-trifluoro-2-(trifluoromethoxy)ethane",-3.281
CCCCCCCCCCCCC1=C(OC(C)=O)C(=O)c2ccccc2C1=O,Acequinocyl,-7.74
O=[N+]([O-])c1cc(Cl)cc(Cl)c1,"Benzene, 1,3-dichloro-5-nitro-",-3.584
CCOP(=S)(OCC)Oc1ccc(SC)cc1,–,-4.889
CCC(C)(C)OOC(=O)C(C)(C)C,–,-2.572
C[C@]12CC[C@H](O)C[C@@H]1CC[C@@H]1[C@@H]2CC[C@]2(C)[C@@H](O)CC[C@@H]12,"3beta,17beta-Androstanediol",-1.989
O=C(O)[C@@H](Br)[C@@H](Br)C(=O)O,"meso-2,3-Dibromosuccinic acid",-1.131
O=S(=O)(O)C(F)(F)C(F)(F)C(F)(F)C(F)(F)C(F)(F)C(F)(F)C(F)(F)C(F)(F)F,Perfluorooctanesulfonic acid,-2.943
O=C(O)C(F)(F)C(F)(F)C(F)(F)C(F)(F)C(F)(F)C(F)(F)C(F)(F)F,Perfluorooctanoic acid,-1.913
Cc1ncc(CNC(N)=O)c(N)n1,N-[(4-Amino-2-methylpyrimidin-5-yl)methyl]urea,-2.258
CCCCCOC(N)=O,"Carbamic acid, pentyl ester (8CI)(9CI)",-1.47
COP(=S)(NC(C)C)Oc1ccccc1C(=O)OC(C)C (centres undefined),–,-4.14
N[C@@H](Cc1ccc(N(CCCl)CCCl)cc1)C(=O)O,Melphalan,-2.708
COC(=O)C(c1ccccc1)C1CCCCN1 (centres undefined),Methylphenidate,-2.689
Nc1cc([N+](=O)[O-])cc([N+](=O)[O-])c1,"3,5-Dinitroaniline",-2.15
O=C(NC(=O)c1c(F)cccc1F)Nc1ccc(Cl)cc1,Diflubenzuron,-6.4
CCCN(CCC)c1c([N+](=O)[O-])cc(S(N)(=O)=O)cc1[N+](=O)[O-],Oryzalin,-4.85
O=C(NC(=O)c1c(F)cccc1F)Nc1ccc(CO/N=C(/c2ccc(Cl)cc2)C2CC2)cc1,"Flucycloxuron,(E)-isomer",-8.685
C=CCN1CC[C@]23c4c5ccc(O)c4O[C@H]2C(=O)CC[C@@]3(O)[C@H]1C5,Naloxone,-1.764
C1=CC2C3C=CC(C3)C2C1 (centres undefined),Dicyclopentadiene,-3.699
CN(C)C(=O)c1cc2cnc(Cl)nc2n1C1CCCC1,–,-2.709
O=[N+]([O-])Nc1ccc(Cl)cc1Cl,"2,4-Dichloro-N-nitro-aniline",-3
CC[C@H]1CN2CCc3cc(OC)c(OC)cc3[C@@H]2C[C@@H]1C[C@H]1NCCc2cc(OC)c(OC)cc21,Emetine,-2.689
Cc1cc(C)c(C(=O)P(=O)(c2ccccc2)c2ccccc2)c(C)c1,"Diphenyl(2,4,6-trimethylbenzoyl)phosphine oxide",-4.756
C#C[C@@]1(OC(C)=O)CC[C@@H]2[C@H]3CC=C4C=C(OCC)CC[C@H]4[C@@H]3CC[C@]21C,–,-8.826
O=Nc1ccccc1,Nitrosobenzene,-1.699
CCC(N)P(=O)(O)O (centres undefined),–,0
C#CC(O)(C=CCl)CC (centres undefined),Ethchlorvynol,-3.005
CC(=O)Oc1ccc(C#N)cc1,"Benzonitrile, 4-(acetyloxy)-",-1.799
CC(C)(c1ccc(OP(=O)(Oc2ccccc2)Oc2ccccc2)cc1)c1ccc(OP(=O)(Oc2ccccc2)Oc2ccccc2)cc1,"2,2-Bis[4-[bis(phenoxy)phosphoryloxy]phenyl]propane",-6.222
CCOC(=O)c1ccccc1S(=O)(=O)NC(=O)Nc1nc(Cl)cc(OC)n1,Chlorimuron-ethyl,-2.541

Excerpt, the opening 7 entries:

structure (SMILES)	name	water solubility (log10 mol/L)
Nc1ccc(Cl)cc1C(=O)c1ccccc1	2-Amino-5-chlorobenzophenone	-4.888
CCCCc1c(C)nc(NCC)nc1O	Ethirimol	-2.997
FC(F)Br	Bromodifluoromethane	0.582
C[N+]1(C)CCCCC1.[Cl-]	Mepiquat chloride	0.524
CNCC(C)c1ccccc1 (centres undefined)	–	-1.09
C[C@H]1CC(=O)C=C2CC[C@H]3[C@@H]4CC[C@H](O)[C@@]4(C)CC[C@@H]3[C@]21C	17beta-Hydroxy-1alpha-methylandrost-4-ene-3-one	-3.526
C#C[C@@]1(O)CC[C@@H]2[C@H]3CC=C4C=C(OCC)CC[C@H]4[C@@H]3CC[C@]21C	–	-7.044

Data: OPERA 2.9 data sets, kmansouri/OPERA on GitHub.